Assay results taken from patent US10780082B2, “Macrocycle and composition comprising thereof” (Shenzhen TargetRx, Inc., priority 2016, dated 2020).

Experiment: Metabolic stability in rat liver microsomes
Format: in vitro ADME, SD rat
Settings: rat liver microsomes 0.5 mg/mL, compound 1 μM
Description: Experiments in microsomes: Human liver microsomes: 0.5 mg/mL, Xenotech; Rat liver microsomes: 0.5 mg/mL, Xenotech; Coenzyme (NADPH/NADH): 1 mM, Sigma Life Science; Magnesium chloride: 5 mM, 100 mM phosphate buffer (pH 7.4).
Preparation of stock solution: Powder of the example compound 2-8 was accurately weighed and dissolved in DMSO to 5 mM.
Preparation of phosphate buffer (100 mM, pH7.4): A pre-formulated 0.5M potassium dihydrogen phosphate (150 mL) was mixed with 0.5M dibasic potassium phosphate (700 mL). The pH of the mixture was adjusted to 7.4 with 0.5M dibasic potassium phosphate solution. […]
Incubation of the samples: The stock solution of the respective compound was respectively diluted to 0.25 mM with an aqueous solution containing 70% acetonitrile, and used as a working solution, ready for use. […]
Metabolic stability assay: 300 μL of pre-chilled stop solution was added to each well of a 96-well deep well plate and placed on ice as a stop plate. […] 100 μL of the supernatant was added to a 96-well plate to which 100 μL of distilled water was previously added, mixed, and analyzed by LC-MS/MS.
Data analysis: The peak areas of the corresponding compound and internal standard were detected by LC-MS/MS system, and the ratio of the peak area of the compound to the internal standard was calculated.

Row | SMILES | t1/2
1 | C[C@H]1Oc2cc(cnc2N)-c2c(nn(C)c2C#N)CN(C)C(=O)c2ccc(F)cc21 [PF-06463922, reference compound] | >2.42 h
2 | [2H]C([2H])([2H])n1nc2c(c1C#N)-c1cnc(N)c(c1)OC(C)c1cc(F)ccc1C(=O)N(C)C2 (racemic) [Compound 28] | >2.42 h
